Measurements as given in ChEMBL document CHEMBL5096206, “From natural products to HDAC inhibitors: An overview of drug discovery and design strategy” (Bioorg Med Chem, 2021).

Amino acid sequences for entries named in this document (tags omitted). A change or cut given only in a name is not applied to a line headed by its entry.
UniProt O15379: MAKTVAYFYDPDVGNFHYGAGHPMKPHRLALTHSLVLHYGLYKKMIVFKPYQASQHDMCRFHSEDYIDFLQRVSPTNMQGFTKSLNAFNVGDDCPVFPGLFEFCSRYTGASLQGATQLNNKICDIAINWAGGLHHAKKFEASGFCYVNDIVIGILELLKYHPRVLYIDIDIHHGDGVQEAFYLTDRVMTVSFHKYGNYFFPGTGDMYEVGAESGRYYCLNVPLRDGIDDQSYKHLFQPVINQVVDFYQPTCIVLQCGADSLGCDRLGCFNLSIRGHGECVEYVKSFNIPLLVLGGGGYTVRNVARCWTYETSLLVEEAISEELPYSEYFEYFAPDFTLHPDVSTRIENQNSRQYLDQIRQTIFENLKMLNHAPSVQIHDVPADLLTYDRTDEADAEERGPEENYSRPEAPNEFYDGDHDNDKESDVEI

Target: Histone deacetylase 3 (Homo sapiens, UniProt O15379)
Test: Inhibition of HDAC3 (unknown origin)

## CCCC(CCC)C(=O)O [VALPROIC ACID]
  IC50: 700 µM
